{
  "source": "paper PMC4652220",
  "about": "“Imaging and energetics of single SSB-ssDNA molecules reveal intramolecular condensation and insight into RecOR function” (eLife, 2015)",
  "target": "T1, RecO (UniProt P0A7H3 1-242)",
  "T1 construct": "RecO recombination mediator protein; source: purified as previously described (Kantake et al., 2002)",
  "T1 sequence (looked up)": "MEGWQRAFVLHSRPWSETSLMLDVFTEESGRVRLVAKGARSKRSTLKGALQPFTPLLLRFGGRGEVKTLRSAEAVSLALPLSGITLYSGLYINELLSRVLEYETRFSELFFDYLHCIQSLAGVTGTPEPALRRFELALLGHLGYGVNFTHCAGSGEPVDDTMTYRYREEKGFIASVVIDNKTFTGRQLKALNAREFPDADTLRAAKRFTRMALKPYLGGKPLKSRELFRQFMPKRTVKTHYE",
  "assay": "magnetic tweezers force spectroscopy; single tethered ssDNA; added in turn: 100 mM NaOAc and 1 mM Mg(OAc)2, 200 nM SSB, 100 nM RecO, 1 μM RecR; 20 mM TrisOAc pH 8.0, 50 mM DTT; 25°C",
  "conditions": "both partners purified",
  "data": [
    {"binder": "Escherichia coli single-stranded DNA binding protein (SSB), wild-type, unmodified (natural protein, E. coli, UniProt P0AGE0 1-178, looked up, also called wild type SSB; unlabeled SSB) MASRGVNKVILVGNLGQDPEVRYMPNGGAVANITLATSESWRDKATGEMKEQTEWHRVVLFGKLAEVASEYLRKGSQVYIEGQLRTRKWTDQSGQDRYTTEVVVNVGGTMQMLGGRQGGGAPAGGNIGGGQPQGGWGQPQQPQGGNQFSGGAQSRPQQSAPAAPSNEPPMDFDDDIPF", "values": [
      {"measurement": "binding result", "result": "binds"}
    ]}
  ]
}
